Reference: ChEMBL document CHEMBL1148680 (Bioorg Med Chem Lett, 2006)

Protein sequences, listed by entry. Tags and fused reporters are not part of them. Lines headed by an entry give the natural chain unless they say otherwise; changes in a name come on top.
UniProt Q12809: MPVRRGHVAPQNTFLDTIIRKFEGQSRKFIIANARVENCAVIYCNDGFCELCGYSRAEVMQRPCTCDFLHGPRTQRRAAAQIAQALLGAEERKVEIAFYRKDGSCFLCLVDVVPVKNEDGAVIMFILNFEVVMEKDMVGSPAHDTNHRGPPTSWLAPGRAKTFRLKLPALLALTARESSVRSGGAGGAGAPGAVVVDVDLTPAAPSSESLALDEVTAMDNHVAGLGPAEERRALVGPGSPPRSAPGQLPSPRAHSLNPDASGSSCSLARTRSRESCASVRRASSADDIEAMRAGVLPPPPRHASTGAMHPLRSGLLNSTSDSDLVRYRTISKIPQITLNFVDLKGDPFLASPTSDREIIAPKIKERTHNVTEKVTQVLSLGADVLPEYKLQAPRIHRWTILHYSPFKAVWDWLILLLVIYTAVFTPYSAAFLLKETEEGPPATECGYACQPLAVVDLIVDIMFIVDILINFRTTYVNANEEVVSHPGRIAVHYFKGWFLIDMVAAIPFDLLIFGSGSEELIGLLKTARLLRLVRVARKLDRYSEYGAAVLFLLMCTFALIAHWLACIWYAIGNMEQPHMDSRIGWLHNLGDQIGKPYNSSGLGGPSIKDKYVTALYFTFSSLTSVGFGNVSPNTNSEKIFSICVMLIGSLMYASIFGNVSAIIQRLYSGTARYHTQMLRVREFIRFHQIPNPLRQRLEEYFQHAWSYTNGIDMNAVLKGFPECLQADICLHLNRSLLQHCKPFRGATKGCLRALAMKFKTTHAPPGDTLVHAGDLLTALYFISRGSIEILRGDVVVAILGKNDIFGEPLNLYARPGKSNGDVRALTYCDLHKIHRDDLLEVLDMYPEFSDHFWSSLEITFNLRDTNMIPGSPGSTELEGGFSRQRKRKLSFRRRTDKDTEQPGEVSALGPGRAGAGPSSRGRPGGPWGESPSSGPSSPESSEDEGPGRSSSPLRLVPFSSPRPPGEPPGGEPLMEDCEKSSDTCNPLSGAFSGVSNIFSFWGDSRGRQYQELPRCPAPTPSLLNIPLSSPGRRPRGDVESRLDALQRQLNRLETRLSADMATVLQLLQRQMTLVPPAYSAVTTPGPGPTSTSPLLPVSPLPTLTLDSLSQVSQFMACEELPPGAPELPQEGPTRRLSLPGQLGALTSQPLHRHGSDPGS

Target: Voltage-gated inwardly rectifying potassium channel KCNH2 (Homo sapiens, UniProt Q12809)
Test: Inhibition of [3H]dofetilide binding to HERG expressed in HEK293 cells
Type: cell-based

## CN(CCOc1ccc(NS(C)(=O)=O)cc1)CCc1ccc(NS(C)(=O)=O)cc1 [DOFETILIDE]
  Activity: 0.011 µM
